The term pIC50 denotes −log10 of the IC50, conventionally taken in molar units.

The target of assay [1] is T1, E-selectin (Homo sapiens, UniProt P16581).
T1 sequence (P16581 22-610): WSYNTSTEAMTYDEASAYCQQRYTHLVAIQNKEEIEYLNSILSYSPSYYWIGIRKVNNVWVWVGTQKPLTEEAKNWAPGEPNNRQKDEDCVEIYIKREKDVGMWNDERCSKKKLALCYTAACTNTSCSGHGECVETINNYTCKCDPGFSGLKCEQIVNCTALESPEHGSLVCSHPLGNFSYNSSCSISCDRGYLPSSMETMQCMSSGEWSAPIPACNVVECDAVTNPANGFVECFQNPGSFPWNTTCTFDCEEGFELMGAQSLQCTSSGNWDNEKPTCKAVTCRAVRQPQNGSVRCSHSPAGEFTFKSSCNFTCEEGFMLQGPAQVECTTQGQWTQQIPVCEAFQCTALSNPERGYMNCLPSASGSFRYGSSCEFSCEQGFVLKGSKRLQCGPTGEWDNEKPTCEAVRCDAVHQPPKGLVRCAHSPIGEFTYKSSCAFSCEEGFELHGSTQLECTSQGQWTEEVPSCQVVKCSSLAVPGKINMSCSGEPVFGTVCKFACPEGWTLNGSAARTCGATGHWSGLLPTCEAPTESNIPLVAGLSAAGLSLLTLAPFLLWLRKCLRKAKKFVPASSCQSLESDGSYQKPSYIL
The assay can be described thus: E-selectin inhibition assay (Weitz-Schmidt et al.). Format: binding. The conditions noted are these: SLex reference value listed with mimetics 2-6.

Assay [2] concerns the target T2, P-selectin (Homo sapiens, UniProt P16109).
T2 sequence (P16109 42-830): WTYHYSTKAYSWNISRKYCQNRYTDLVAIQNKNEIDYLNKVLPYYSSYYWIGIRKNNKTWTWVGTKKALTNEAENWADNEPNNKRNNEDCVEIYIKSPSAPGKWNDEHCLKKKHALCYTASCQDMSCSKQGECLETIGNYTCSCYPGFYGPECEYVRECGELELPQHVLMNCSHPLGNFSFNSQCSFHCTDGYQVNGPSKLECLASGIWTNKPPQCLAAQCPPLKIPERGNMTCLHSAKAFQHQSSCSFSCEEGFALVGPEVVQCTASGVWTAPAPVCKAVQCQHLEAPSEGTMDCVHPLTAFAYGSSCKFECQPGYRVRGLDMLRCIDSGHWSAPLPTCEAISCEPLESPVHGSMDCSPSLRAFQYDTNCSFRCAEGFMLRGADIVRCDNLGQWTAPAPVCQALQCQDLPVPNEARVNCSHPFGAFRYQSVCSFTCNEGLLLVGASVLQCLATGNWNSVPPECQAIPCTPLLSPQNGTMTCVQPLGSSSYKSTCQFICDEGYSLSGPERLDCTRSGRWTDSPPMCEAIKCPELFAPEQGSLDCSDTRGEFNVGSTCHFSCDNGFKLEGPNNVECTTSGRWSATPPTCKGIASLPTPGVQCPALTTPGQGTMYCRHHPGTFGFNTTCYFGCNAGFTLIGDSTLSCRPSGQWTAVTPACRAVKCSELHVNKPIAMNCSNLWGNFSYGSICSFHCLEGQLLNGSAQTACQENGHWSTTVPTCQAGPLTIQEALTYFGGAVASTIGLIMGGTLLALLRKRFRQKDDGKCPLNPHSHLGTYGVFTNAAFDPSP
The assay can be described thus: P-selectin inhibition assay. The format is binding. The conditions noted are these: at 3 mM.

Another assay concerns the target T3, L-selectin (Homo sapiens, UniProt P14151).
T3 sequence (P14151 39-372): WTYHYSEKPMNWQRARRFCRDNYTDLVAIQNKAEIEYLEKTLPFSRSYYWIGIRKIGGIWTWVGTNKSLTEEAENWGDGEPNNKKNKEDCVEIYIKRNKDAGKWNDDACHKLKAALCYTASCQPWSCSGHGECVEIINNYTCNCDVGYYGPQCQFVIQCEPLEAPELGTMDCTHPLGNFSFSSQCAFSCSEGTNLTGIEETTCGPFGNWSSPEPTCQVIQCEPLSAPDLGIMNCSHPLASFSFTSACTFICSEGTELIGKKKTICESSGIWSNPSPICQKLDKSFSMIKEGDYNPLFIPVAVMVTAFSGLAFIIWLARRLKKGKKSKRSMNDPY
The assay can be described thus: L-selectin inhibition assay. Format: binding. The conditions noted are these: at 3 mM.

Assay [3] deals with T1, E-selectin. The conditions noted are these: literature value; cited from earlier work.
Assay [4] concerns the target T2, P-selectin. The conditions noted are these: literature value; cited from earlier work.

pIC50: −log10 of the molar value. Like-named read-outs stand apart in the source and are kept apart here.

Consider NeuAcα2→3Galβ1→4(Fucα1→3)GlcNAc [SLex], for which the pIC50 at E-selectin [1] was 3.30; at E-selectin [3], 3.30; at P-selectin [4] it was under 2.52. Moreover, the “inhibition of P-selectin” value against P-selectin [2] came out at 0%. Also, at L-selectin, the “inhibition of L-selectin” value is given as 50%.

The values are drawn from patent US5837862A, “Sialyl Lewis X mimetics incorporating mannopeptides” (The Scripps Research Institute, priority 1996, dated 1998).
